Reference: patent US20260108465A1 (Belhaven BioPharma Inc., priority 2024, published 2026)

Test: Study 101: plasma epinephrine pharmacokinetics
Format: in vivo, human
Set-up: unit not given beside the values
Conditions: 0.5 mg IM
Method: Each patient was provided each treatment of the trial with 72-hour washout periods between each treatment, beginning with a 3.5 mg intranasal dose, followed by a 0.3 mg intramuscular dose, followed by a 0.5 mg intramuscular dose, and concluding with a 5.5 mg intranasal dose, with a safety follow-up performed 3 to 5 days after the final dose was administered. The primary endpoints of the study were pharmacokinetic measurements and assessments of comparative bioavailability, while the secondary endpoints were safety concerns and pharmacodynamic assessments.

CNC[C@H](O)c1ccc(O)c(O)c1 [Epinephrine IM, epinephrine]
Cmax (GeoMean): 382.3
